Laboratory results taken from PubChem BioAssay AID1347165 (National Center for Advancing Translational Sciences (NCATS), 2019).
Among all 220,000 compounds or so, about 5,700 (2.6%) were called active. These results got no clear call from the source, so the numbers are uncertain. The call rests on the fitted dose curve; in most records, active means well fitted inhibition curve with a large enough effect; inconclusive means small, poorly fitted or top-dose-only effect; inactive means no such curve, though single readings can be large or run the other way.

Amino acid sequences for entries named in this document (tags omitted). A change or cut given only in a name is not applied to a line headed by its entry.
UniProt Q9UGL1: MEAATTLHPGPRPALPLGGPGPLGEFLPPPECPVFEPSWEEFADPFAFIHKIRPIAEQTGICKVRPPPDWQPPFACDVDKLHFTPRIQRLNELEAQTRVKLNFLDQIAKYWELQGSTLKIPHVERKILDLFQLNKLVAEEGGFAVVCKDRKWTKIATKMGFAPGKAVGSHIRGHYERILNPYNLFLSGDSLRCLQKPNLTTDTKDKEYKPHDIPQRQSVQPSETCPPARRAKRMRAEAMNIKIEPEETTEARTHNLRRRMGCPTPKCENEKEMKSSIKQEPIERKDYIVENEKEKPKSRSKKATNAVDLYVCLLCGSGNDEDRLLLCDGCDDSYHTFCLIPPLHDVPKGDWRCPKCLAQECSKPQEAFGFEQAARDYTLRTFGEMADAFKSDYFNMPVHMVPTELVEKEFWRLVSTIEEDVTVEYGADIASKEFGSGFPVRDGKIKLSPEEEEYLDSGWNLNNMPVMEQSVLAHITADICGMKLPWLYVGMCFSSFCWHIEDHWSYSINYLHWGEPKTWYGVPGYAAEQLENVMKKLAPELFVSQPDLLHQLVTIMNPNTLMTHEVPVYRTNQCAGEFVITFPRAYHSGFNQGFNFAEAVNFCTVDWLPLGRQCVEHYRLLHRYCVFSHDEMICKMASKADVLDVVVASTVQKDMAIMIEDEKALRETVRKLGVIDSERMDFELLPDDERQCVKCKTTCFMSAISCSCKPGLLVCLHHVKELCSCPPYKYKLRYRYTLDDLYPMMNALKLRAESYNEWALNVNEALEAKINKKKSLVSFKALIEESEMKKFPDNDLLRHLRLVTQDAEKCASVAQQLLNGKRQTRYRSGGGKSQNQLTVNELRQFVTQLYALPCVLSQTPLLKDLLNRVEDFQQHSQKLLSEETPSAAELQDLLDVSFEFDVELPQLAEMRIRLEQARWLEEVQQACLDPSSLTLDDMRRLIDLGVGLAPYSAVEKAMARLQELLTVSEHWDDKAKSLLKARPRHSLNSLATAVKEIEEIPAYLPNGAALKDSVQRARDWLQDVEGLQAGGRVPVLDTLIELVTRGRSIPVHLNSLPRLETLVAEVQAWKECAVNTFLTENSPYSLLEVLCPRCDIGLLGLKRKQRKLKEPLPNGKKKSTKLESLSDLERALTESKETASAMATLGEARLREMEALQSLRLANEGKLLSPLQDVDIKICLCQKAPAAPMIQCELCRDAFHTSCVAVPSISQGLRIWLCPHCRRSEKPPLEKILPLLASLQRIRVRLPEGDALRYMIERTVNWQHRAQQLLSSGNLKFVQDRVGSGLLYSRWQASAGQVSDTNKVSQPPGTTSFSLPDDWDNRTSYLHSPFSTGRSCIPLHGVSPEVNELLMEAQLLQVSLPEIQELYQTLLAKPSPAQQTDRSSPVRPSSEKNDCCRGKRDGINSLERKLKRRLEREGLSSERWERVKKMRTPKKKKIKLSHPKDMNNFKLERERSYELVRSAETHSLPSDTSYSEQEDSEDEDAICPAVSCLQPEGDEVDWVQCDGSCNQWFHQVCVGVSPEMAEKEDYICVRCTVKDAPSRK

biological target: Lysine-specific demethylase 5B (Homo sapiens) (UniProt Q9UGL1); test: Primary screen for KDM5B Histone Demethylases FDH-coupled qHTS; details: FDH-coupled NADH fluorescence (FDH is formaldehyde dehydrogenase); further: nearly all actives have a fitted effect of over 70% in size
Description: Assay Submitter (PI): Qin Yan, Ph.D. (Yale University) and Xiaodong Cheng, Ph.D. (MD Anderson) This project was funded as part of the NCI NEXT Program and Chemical Biology Consortium (CBC) The histone demethylases, KDM5A and KDM5B catalyze the demethylation of lysine 4 on histone H3 (H3K4me3/2). They are overexpressed in a variety of cancers and have been implicated in cancer cell growth, metastasis, drug resistance, and tumor growth. KDM5A is amplified and overexpressed in breast and gastric cancer; and is translocated in leukemia. While KDM5B is highly expressed in human mammary tumors and breast cancer cell lines, but not in normal adult breast tissue. Moreover, knockdown of KDM5B leads to upregulation of tumor suppressor genes, including BRCA1. The goal of this project is to employ qHTS to identify selective small molecule inhibitors of KDM5A/B demethylase activity to better understand the role of KDM5 in cancer and to develop novel therapies. We employed an FDH-coupled assay previously reported by Sakurai et al. to monitor in vitro KDM5 demethylase activity. Compounds showing dose response inhibition are re-acquired, validated, and tested for non-specific interference with the formaldehyde dehydrogenase (FDH) counterscreen. True inhibitors are validated using an AlphaLisa secondary screen, which employs an H3K4(me2-1)-specific antibody to monitor demethylation of a biotin-tagged H3K4(me3) peptide substrate. Inhibitors are profiled against KDM4A and KDM6A AlphaLisa counterscreens to determine level of demethylase specificity; and against the TruHits counterscreen to eliminate non-specific inhibitory activity on the AlphaLISA detection method. Selective inhibitors identified from the primary and secondary screening are tested in cells using immunofluorescence to monitor global H3K4 tri-methylation as a measure of KDM5A/B inhibition. Early Translation Branch (ETB) National Center for Advancing Translational Sciences (NCATS), Rockville, MD National Institute of Health (NIH), Bethesda, Maryland [1] Sakurai, M et al. A miniaturized screen for inhibitors of Jumonji histone demethylases. Mol Biosyst. 2010 Feb;6(2):357-64. doi: 10.1039/b912993f. Epub 2009 Oct 8.
Materials: 1536-well Black, solid bottom, medium binding assay plate is purchased from Greiner Bio-one. The enzymes (KDM5B) and substrate (H3K4me3/2) are provided by the principal investigators. The buffer for this assay is composed of 50mM HEPES at pH 7.5 with 0.01% Tween-20. FDH coupled Demethylase qHTS protocol: Three microliter enzyme mix (buffer + 200nM KDM5BDeltaAP final concentration) is dispensed into the assay plate using the BioRAPTR Flying Reagent Dispenser (FRD; […]). Compound (at various final concentration) and control solution is pin transferred to the assay plate using the Kalypsys 1536-pin tool apparatus. The assay plate is incubated for 10 min at room temperature followed by addition of 1uL substrate mix (buffer + 100uM ascorbic acid, 50uM ferrous ammonium sulfate, 12.5uM H3K4Me3, 25uM a-ketoglutarate, 0.25 mM NAD+, 0.25 U/mL formaldehyde dehydrogenase using the FRD yielding a total reaction volume of 4 uL. Initial fluorescence (Read1) is detected using the PerkinElmer ViewLux plate reader equipped with 340 nm excitation and 450 nm emission filters. The final fluorescence (Read2) signal is obtained after 30 min of room temperature incubation. Delta RFU is calculated (Read2 - Read1) and is used to generated dose response curves.
Potency means the concentration at half of the fitted maximal effect.

| SMILES | Potency |
| --- | --- |
| C[N+]1=C2C=CC=CC=C2SC12C([N+](=O)[O-])=CC([N+](=O)[O-])=C[C-]2[N+](=O)[O-] (stereo not drawn) | inconclusive: 39.8 µM |
| Nc1cccc2ccc([As](=O)(O)O)cc12 | inconclusive: 28.2 µM |
| CC(=O)c1ccc(N2CC2c2ccncc2)cc1 (stereo not drawn) | inconclusive: 10 µM |
| CC(=O)Nc1ccc([As](=O)(O)O)c(O)c1 | inconclusive: 39.8 µM |
| Cc1ccccc1OP(=O)(Nc1ccccn1)Oc1ccccc1C | inconclusive: 22.4 µM |
| CNCc1cc2ccccc2o1 | inconclusive: 7.08 µM |
| Nc1cccc2c([As](=O)(O)O)cccc12 | inconclusive: 25.1 µM |
| CNCc1cccc(C)n1 | inconclusive: 100 µM |
